Species on record: Homo sapiens
Test: Selectivity ratio of IC50 for human mPGES1-mediated PGF2alpha production to IC50 for mPGES1 in human A549 cells
Format: cell-based
Compound `CC1(C)Cc2c(c(C(=O)Nc3ccc(F)c(C(F)(F)F)c3)cc3nc(Nc4c(F)cccc4Cl)[nH]c23)O1` has a Ratio IC50 of 461.
`Cn1c(Nc2c(F)cccc2Cl)nc2cc(C(=O)Nc3cccc(C(F)(F)F)c3)c3c(c21)CC(C)(C)O3` showed a Ratio IC50 of 556.
`CC1(C)Cc2c(c(C(=O)Nc3cc(C(F)(F)F)ccc3F)cc3nc(Nc4c(F)cccc4Cl)[nH]c23)O1` showed a Ratio IC50 of 740.
